Reference: ChEMBL document CHEMBL4602726, “Discovery of the First Vitamin K Analogue as a Potential Treatment of Pharmacoresistant Seizures” (J Med Chem, 2020)

Assay: Toxicity in CF1 mouse assessed as induction of motor impairment during acute (1 hr) observation period by rotarod assay
Settings: in vivo
In short: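 Male CF-1 mice, ip dosing in miglyol 840/DMSO (95%/5%), up to 800 mg/kg. Rotarod at 6 rpm done 1 h after dosing, on the same animals just before 6 Hz testing. Falling three times within one minute scored as impaired; animals also inspected visually.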

CCCC(CCC)C(=O)O [VALPROIC ACID]
TD50 at 1 h: 390 mg/kg
